These results are taken from publication PMC12339401, “Reconstitution of BNIP3/NIX-mitophagy initiation reveals hierarchical flexibility of the autophagy machinery” (Nature Cell Biology, 2025).

This assay addresses T1, GFP-tagged ATG13/101 subcomplex (UniProt O75143 1-517; Q9BSB4 1-218).
T1 construct: ATG13, GST-TEV-GFP-tagged ATG13; ATG101; source: HEK293F cells, purified; not shown: GFP, N-terminal, kept
T1 sequence (looked up) 1: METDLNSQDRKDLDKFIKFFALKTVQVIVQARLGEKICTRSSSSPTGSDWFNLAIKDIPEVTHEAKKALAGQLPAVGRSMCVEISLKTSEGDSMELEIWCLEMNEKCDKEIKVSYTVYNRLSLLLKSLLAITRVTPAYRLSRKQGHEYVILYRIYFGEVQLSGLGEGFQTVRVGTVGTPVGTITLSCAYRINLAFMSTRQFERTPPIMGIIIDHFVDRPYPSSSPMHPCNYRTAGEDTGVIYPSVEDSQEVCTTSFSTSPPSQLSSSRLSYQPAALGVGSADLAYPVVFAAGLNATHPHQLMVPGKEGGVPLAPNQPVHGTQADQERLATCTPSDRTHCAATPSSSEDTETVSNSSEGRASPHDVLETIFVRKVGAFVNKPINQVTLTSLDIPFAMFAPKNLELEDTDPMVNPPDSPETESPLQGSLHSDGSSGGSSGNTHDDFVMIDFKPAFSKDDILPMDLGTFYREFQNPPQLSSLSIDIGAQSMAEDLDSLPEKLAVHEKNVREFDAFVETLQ
T1 sequence (looked up) 2: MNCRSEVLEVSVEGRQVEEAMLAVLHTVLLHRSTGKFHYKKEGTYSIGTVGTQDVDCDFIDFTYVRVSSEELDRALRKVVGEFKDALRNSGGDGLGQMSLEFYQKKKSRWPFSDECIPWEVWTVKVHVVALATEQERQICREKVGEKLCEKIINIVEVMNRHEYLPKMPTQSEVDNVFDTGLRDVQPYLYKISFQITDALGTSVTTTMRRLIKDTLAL
Put plainly: microscopy-based bead assay; GFP-tagged bait on GFP-trap agarose beads, mCherry-tagged prey in solution, confocal imaging. Conditions: both partners purified.

B1: mCherry-WIPI3 (natural protein)
chain: not shown
notes: 6xHis-TEV-mCherry tag; also called mCherry-tagged WIPI3; source: E. coli Rosetta pLysS, purified; not shown: mCherry, N-terminal, kept
Turning to B1, the binding result is on record as “binds”.
